Values of other authors as cited in patent US11130943B2, “Culture medium” (Koninklijke Nederlandse Akademie Van Wetenschappen, priority 2014, dated 2021).

Biological target: T1, ALK5 (TGF-βR1) (Homo sapiens, UniProt P36897)
T1 sequence (P36897 34-503): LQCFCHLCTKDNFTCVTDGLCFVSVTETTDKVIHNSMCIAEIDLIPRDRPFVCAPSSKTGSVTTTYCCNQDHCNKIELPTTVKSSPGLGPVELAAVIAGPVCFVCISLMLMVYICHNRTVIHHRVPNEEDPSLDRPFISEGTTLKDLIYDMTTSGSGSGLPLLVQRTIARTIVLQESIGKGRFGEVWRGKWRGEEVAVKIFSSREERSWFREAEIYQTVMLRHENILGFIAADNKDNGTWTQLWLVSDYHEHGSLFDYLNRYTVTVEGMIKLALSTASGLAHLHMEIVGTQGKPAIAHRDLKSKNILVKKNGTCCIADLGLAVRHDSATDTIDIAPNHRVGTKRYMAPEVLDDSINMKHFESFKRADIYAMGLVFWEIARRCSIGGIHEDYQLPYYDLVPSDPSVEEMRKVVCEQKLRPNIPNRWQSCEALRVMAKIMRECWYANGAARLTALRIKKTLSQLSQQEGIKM
Details: p38 MAP kinase inhibitor at high concentrations; cited from earlier work

C[S+]([O-])c1ccc(-c2nc(-c3ccc(F)cc3)c(-c3ccncc3)[nH]2)cc1 (stereo not shown) [SB-203580]
concentration at which it is thought to inhibit ALK5: ≥ 10 µM
